{"sequences": {"note": "Chains of the proteins cited; added tags and fusions are not shown.", "UniProt P42338, whole entry, species assumed": "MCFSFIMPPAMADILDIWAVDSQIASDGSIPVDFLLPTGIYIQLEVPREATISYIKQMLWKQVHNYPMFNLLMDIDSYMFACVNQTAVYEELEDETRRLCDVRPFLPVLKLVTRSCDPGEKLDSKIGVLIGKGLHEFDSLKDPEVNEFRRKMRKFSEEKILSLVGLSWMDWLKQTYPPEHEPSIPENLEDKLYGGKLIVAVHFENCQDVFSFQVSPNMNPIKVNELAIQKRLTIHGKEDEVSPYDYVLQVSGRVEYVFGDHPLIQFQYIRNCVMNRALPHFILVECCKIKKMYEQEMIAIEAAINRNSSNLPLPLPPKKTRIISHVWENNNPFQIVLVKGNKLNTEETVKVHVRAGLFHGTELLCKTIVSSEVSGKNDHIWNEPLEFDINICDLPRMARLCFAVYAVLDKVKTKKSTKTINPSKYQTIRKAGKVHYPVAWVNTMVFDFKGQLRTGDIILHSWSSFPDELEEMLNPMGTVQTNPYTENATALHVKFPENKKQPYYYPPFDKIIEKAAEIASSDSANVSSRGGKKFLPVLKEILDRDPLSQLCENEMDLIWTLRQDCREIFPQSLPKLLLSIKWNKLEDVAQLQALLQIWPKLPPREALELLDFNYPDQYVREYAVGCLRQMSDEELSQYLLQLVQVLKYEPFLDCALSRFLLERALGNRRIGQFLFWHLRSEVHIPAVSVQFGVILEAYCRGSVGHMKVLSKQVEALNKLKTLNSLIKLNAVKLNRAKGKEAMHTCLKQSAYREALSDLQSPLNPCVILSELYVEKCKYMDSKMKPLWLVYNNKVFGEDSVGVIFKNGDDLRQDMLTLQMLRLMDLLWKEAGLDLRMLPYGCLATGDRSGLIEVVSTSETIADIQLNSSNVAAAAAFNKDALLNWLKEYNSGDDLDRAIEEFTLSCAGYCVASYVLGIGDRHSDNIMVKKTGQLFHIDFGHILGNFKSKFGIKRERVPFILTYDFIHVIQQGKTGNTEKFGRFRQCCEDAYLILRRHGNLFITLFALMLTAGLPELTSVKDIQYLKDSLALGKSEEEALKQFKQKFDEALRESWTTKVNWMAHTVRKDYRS"}, "source": "patent US20240075093A1", "about": "“COMPOSITIONS AND METHODS OF TREATING A PI3K MEDIATED DISEASE” (VIRGINIA TECH INTELLECTUAL PROPERTIES, INC., priority 2020, published 2024)", "origin": "cited, not measured here", "target": "p110β (Homo sapiens, UniProt P42338)", "details": "cell-free, reported; cited from earlier work"}
{"smiles": "Cc1cc(C(C)Nc2ccccc2)c2nc(N3CCOCC3)cc(=O)n2c1", "note": "(stereo not shown) [TGX-221]", "values": [{"measurement": "IC50", "value": 8.5, "unit": "nM"}]}
